Assay results from patent publication US10975056B2 (GlaxoSmithKline Intellectual Property Development Limited, priority 2016, dated 2021).

Protein sequences, listed by entry. Tags and fused reporters are not part of them.
UniProt P26358, whole entry: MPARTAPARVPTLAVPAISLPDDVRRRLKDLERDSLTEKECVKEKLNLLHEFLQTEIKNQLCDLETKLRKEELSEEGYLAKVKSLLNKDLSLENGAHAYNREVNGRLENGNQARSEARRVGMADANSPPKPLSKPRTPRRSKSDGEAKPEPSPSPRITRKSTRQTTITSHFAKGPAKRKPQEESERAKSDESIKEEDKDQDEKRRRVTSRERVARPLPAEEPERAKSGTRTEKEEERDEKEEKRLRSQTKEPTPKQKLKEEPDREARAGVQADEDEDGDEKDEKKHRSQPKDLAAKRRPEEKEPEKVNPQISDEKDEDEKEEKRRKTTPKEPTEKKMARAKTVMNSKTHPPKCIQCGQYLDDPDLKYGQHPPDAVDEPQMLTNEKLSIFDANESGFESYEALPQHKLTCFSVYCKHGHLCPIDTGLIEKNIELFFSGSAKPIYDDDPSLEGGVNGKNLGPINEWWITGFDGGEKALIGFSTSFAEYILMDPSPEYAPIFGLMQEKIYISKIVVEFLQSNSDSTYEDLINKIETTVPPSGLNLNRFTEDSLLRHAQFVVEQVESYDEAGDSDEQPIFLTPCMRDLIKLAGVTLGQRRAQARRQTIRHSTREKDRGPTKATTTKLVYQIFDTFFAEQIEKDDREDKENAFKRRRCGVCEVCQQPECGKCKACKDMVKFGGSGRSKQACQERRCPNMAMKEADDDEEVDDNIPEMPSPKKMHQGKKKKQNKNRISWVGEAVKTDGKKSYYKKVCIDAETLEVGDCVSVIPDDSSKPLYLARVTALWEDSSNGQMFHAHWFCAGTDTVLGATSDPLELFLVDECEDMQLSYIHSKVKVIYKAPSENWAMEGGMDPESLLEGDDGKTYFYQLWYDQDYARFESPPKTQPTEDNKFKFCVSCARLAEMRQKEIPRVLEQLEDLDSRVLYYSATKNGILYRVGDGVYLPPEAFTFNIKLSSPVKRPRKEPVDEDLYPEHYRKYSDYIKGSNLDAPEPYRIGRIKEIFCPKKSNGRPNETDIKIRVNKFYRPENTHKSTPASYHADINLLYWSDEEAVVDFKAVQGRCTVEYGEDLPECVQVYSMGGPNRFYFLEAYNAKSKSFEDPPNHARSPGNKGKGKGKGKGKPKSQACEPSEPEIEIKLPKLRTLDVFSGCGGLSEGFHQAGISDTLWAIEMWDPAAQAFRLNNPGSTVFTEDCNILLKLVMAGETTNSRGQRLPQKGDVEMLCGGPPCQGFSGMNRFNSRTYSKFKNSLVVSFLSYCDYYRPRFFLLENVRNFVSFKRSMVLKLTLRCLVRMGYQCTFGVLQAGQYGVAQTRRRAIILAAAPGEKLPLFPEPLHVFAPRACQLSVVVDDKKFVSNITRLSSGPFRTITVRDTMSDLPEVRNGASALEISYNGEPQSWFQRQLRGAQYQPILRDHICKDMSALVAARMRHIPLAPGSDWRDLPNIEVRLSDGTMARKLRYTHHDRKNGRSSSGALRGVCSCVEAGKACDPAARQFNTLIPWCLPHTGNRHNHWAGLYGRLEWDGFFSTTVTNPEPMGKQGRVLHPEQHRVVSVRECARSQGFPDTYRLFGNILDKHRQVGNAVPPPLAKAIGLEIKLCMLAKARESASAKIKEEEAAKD

Columns and labels:
[1] = molecular target: DNMT1 (Homo sapiens, UniProt P26358); assay: DNMT1 biochemical activity, breaklight assay and/or SPA assay; settings: binned activity in either the breaklight or the SPA assay
[2] = test system: erythroid progenitor cells (EPCs); assay: Fetal hemoglobin (HbF) ELISA in day 7 erythroid progenitor cells; settings: day 7 EPCs, 5 days;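 further: for fetal hemoglobin induction normalized to vehicle-treated cells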

Compound: CCc1c(C#N)c(SC(C(N)=O)c2ccccc2)nc(N(C)CCNC(=O)C(N)=O)c1C#N (centres unmarked)
- DNMT1 BioChemical (pIC50 category) [1]: D (Category D: ≥6.5)
- EPC ELISA (pEC50 category) [2]: C (Category C: 6.0 ≤ x < 6.5)
